Test system: NMRI mice
Assay: Mouse skin wound model (punch-through ear holes)
Settings: dermal cream containing 1% CPX, daily

Question: Cc1cc(C2CCCCC2)n(O)c(=O)c1.NCCO [CPX, 6-cyclohexyl-1-hydroxy-4-methyl-2(1H)-pyridone 2-aminoethanol salt] was tested. Which “reddening on the healthy skin area of the same ear” value did it give?
Answer: never observed

From patent publication US20040014794A1, “Use of hydroxypyridone-derivatives in wound healing” (priority 2002, published 2004)
